# Earlier results, collected in patent publication US10093983B2 (priority 2011, dated 2018).
# Amino acid sequences for entries named in this document (tags omitted).
# UniProt P03372, whole entry D351Y: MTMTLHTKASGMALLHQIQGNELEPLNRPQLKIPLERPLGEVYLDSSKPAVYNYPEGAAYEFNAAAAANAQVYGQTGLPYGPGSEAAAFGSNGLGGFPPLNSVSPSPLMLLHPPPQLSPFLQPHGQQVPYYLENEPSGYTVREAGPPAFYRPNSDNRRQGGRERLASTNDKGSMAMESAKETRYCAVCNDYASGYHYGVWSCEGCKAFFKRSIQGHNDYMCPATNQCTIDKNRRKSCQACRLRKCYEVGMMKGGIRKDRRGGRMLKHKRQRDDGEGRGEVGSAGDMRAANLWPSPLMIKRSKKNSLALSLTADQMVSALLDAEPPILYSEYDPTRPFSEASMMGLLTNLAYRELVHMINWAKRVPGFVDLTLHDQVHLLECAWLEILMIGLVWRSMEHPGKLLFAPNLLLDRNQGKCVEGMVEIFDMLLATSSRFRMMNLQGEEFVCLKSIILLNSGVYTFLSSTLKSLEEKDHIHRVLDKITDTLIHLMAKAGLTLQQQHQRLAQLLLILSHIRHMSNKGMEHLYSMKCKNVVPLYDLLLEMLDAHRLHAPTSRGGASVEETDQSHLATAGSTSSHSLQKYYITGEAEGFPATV
# Target: D351Y or D351E mutant ESR1 (Homo sapiens, UniProt P03372, D351Y)
# Conditions: receptor with D351Y or D351E mutation
compound,measurement,value
CC/C(=C(\c1ccc(O)cc1)c1ccc(/C=C/C(=O)O)cc1)c1ccccc1 [GW7604],response of the mutant receptor to SERM therapy,estrogenic response
